The values that follow come from US8796324B2, “Substituted 2-acetamido-5-aryl-1,2,4-triazolones and use thereof” (Bayer Intellectual Property GmbH, priority 2009, dated 2014).

Protein sequences, listed by entry. Tags and fused reporters are not part of them.
UniProt P30518, whole entry: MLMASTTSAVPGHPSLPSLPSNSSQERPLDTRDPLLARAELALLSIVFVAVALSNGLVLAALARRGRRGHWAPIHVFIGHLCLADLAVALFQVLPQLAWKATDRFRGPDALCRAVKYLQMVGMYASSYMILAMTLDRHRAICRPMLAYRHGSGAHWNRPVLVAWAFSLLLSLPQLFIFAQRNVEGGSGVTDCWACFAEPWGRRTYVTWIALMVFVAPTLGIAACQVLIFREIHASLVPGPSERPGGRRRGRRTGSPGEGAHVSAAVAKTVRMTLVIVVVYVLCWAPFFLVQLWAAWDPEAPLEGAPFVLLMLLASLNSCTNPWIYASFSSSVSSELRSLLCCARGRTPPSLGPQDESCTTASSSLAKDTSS
UniProt P37288, whole entry: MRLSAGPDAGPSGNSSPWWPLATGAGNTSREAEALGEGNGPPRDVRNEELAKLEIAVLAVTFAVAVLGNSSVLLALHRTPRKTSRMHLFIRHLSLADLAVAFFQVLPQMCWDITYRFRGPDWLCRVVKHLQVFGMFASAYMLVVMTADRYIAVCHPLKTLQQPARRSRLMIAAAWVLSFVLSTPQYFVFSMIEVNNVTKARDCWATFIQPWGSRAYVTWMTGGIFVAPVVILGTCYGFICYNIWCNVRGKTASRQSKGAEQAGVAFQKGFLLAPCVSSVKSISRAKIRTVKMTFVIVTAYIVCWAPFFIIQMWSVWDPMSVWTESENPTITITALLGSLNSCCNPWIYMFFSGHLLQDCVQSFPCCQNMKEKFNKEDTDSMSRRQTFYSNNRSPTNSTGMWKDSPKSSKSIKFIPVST

Assay [1] concerns the target human V2 receptor (Homo sapiens, UniProt P30518). As to the kind of experiment: Cellular in vitro assay for determining the vasopressin receptor activity (aequorin luminescence). The conditions noted are these: read-out: IC50 hV2; CHO cell line transfected with the human V2 receptor (and Gα16); agonist [Arg8]-vasopressin. From the text:
(§1) B-1. Cellular In Vitro Assay for Determining the Vasopressin Receptor Activity
(§2) The identification of agonists and antagonists of the V1a and V2 vasopressin receptors from humans and rats and also the quantification of the activity of the substances described here took place using recombinant cell lines. These cells derive originally from a hamster ovary epithelial cell (Chinese Hamster Ovary, CHO K1, ATCC: American Type Culture Collection, Manassas, Va. 20108, USA). […] The resulting vasopressin receptor test cells react to stimulation of the recombinantly expressed vasopressin receptors by intracellular release of calcium ions, which can be quantified by the resulting aequorin luminescence using a suitable luminometer (Milligan G., Marshall F., Rees S., Trends in Pharmaco. Sci. 17 (1996) 235-237).
(§3) On the day before the assay, the cells are plated out in culture medium (DMEM, 10% FCS, 2 mM glutamine, 10 mM HEPES) in 384-well microtiter plates and kept in a cell incubator (96% humidity, 5% v/v carbon dioxide, 37° C.). […] The test substances in various concentrations are placed for 10 to 20 minutes in the wells of the microtiter plate before the agonist [Arg8]-vasopressin is added, and the resulting light signal is measured immediately in the luminometer. The IC50 values are calculated using the GraphPad PRISM computer program (Version 3.02). […]

The target in assay [2] is human V1a receptor (Homo sapiens, UniProt P37288). The description is as above. The conditions noted are these: read-out: IC50 hV1a; CHO cell line transfected with the human V1a receptor; agonist [Arg8]-vasopressin.
Source text: as §1, §2, §3

SMILES strings stand for the structures.

Regarding `NC(=O)OCC(NC(=O)Cn1nc(-c2ccc(Cl)cc2)n(C[C@H](O)C(F)(F)F)c1=O)c1cccc(Cl)c1F` (some centres unmarked), the half-inhibitory concentration (IC50) (commonly the point on the concentration scale where inhibition reaches its midpoint) turned out to be 5.4 nM in assay [1] and 3 nM in assay [2].
